Bioassay records: PubChem BioAssay, National Center for Advancing Translational Sciences (NCATS)
Sfp PPTase inh: inhibitors of Bacillus subtilis Sfp phosphopantetheinyl transferase; actives 3.5% (n = 310,000); Q9F4F7; Biochemical Sfp PPTase activity, qHTS; Potency, µM, for the others: max response, negative = inhibition, hits mostly inhibitors; active = well fitted inhibition curve with a large enough effect; inconclusive = small, poorly fitted or top-dose-only effect, or another doubt; inactive = no such curve, though single readings can be large or run the other way;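 also: the enzyme is Sfp with the accession as filed and its product quenches rhodamine fluorescence; potency is read from the fitted curve at half-maximal effect; 0% = enzyme reaction without inhibitor and -100% = no enzyme wells; top concentration of the series not given in the record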
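Reaction rates are the 30-min fluorescence difference (ex 525, em 598 nm) in wells containing 15 nM Sfp, 5 uM rhodamine-CoA and 12.5 uM BHQ-2-YbbR at pH 7.6 with 10 mM MgCl2.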
LMNA splice mod: LMNA splicing modulation; HeLa LMNA splicing GFP/RFP minigene ratio, 48 h; Potency, µM (top dose mostly 46.1 µM), inactives show top-dose ratio change, negative = inhibition, hits mostly inhibitors; actives 0.01% (n = 200,000); active = well fitted inhibition curve with a large enough effect in the signal ratio, with a control signal flat, not every such curve was filed as active; inconclusive = small, poorly fitted or top-dose-only effect, or effect the other way, or a change in a side signal; the % refers to the signal ratio; note: potency is the fitted concentration of half-maximal effect; % is set by controls: 0 for no effect and ±100 for the full control effect
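Read-out is the ratio of GFP to DsRed2 object intensity, acquired by 488 nm laser-scanning cytometry on HeLa lamin A-EGFP minigene reporter cells. Compound incubation 48 hrs at 37 °C in Opti-MEM with 2% FBS; DMSO 0.5% final.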
KDM4E inh: inhibitors of human JMJD2E histone demethylase. B2RXH2. JMJD2E catalytic domain, FDH-coupled NADH fluorescence (FDH is formaldehyde dehydrogenase). Potency, µM (top dose mostly 57.1 µM), for inactives: at the top dose activity change, negative = inhibition, actives largely listed as inhibitors. actives 1.6% (n = 230,000). AID 2147; active = well fitted inhibition curve with a large enough effect, not every such curve was filed as active; inconclusive = small, poorly fitted or top-dose-only effect, or another doubt; inactive = no such curve, though single readings can be large or run the other way;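 note: potency is the fitted concentration of half-maximal effect; 0% = wells with enzyme and -100% = buffer wells without enzyme; nearly all actives have a fitted effect of over 50% in size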
miR-21 reporter: raises the signal of a miR-21 reporter. HeLa miR-21 FLuc reporter, luciferase, 48 h. 340,000 tested, under 10 active. Potency, µM (highest dose often 38.3 µM), for the others: at the highest dose reporter change, positive = more light; active = well fitted rising curve with a large enough effect; inconclusive = small, poorly fitted or top-dose-only effect; inactive = no such curve, though single readings can be large or run the other way;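 note: % of control where 0% means no effect; miR-21 action dims this reporter so a rising signal means less miR-21 action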
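HeLa miR-21-FLuc reporter line, endogenous miR-21; 2000 cells/well in DMEM/10% FBS; compound titration up to ~40uM final, 48 h, 37 degree Celsius; luciferase detection reagent, 15 min lysis, CCD luminescence.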
G9a inh: blocks human histone lysine methyltransferase G9a | Q96KQ7 | G9a H3K9 monomethylation, AlphaScreen, 2 h | Potency, µM (top dose mostly 102 µM), inactives show at the top dose activity, negative = inhibition, actives largely listed as inhibitors | actives 8.8% (n = 350,000) | AID 504332; note: potency is the fitted concentration of half-maximal effect; % is set by controls: 0 for no effect and ±100 for the full control effect; nearly all actives have a fitted effect of over 75% in size
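Signal arises when biotinylated H3K9 peptide, once monomethylated, bridges streptavidin donor and antibody-captured acceptor beads. Enzyme at 20 nM was preincubated 15 min with test compounds; peptide 500 nM and SAM 20 uM then reacted for 2 h.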
ALDH1A1 block: blocks purified human ALDH1A1 activity; Potency, µM (top dose mostly 75.3 µM), inactives show at the top dose activity, negative = inhibition, actives largely listed as inhibitors; actives 7.3% (n = 220,000); AID 1030; P00352; Purified ALDH1A1, NADH fluorescence, propionaldehyde substrate; active = well fitted inhibition curve with a large enough effect, not every such curve was filed as active; inconclusive = small, poorly fitted or top-dose-only effect, or another doubt; inactive = no such curve, though single readings can be large or run the other way;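 note: potency is the fitted concentration of half-maximal effect; plate controls were no enzyme wells and a reference inhibitor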
* hit, by the source's call; ? = inconclusive; · = not tested or not shown; [ ] = another dose, or the depositor's remark. Most compounds without a hit are left out; they make up all but 13% or so of the library. Unless noted, calls come from the whole dose curve; as a rule, active = well fitted curve in the direction sought with a large enough effect; inconclusive = small, poorly fitted or top-dose-only effect, or another doubt; inactive = no such curve, though single readings can be large; an effect the other way counts as inactive or inconclusive.

item	Sfp PPTase inh	LMNA splice mod	KDM4E inh	miR-21 reporter	canonical_smiles	G9a inh	ALDH1A1 block
1	18µM*	4%	-11%	-17%	O=C(O)CCc1ccc(-c2ccc(Br)cc2)o1	16µM*	?
2	20µM*	0%	?	-3%	O=C(O)CCc1ccc(-c2ccc(Cl)cc2)o1	4µM*	?
3	14µM*	?	?	-28%	COc1ccc(-c2ccc(CCC(=O)O)o2)cc1	28µM*	?
4	·	·	·	·	O=C(O)CCC(=O)c1ccc(Cl)cc1	·	-2%[13.5 µM]
5	11%	·	13%	9%	CCOC(=O)c1ccc(NC(=S)NCCc2ccc(F)cc2)cc1	-15%	10%
6	-12%	-10%	1%	-1%	Cc1cc2c(=O)n(Cc3ccco3)c(SCC(=O)NCc3ccco3)nc2s1	14%[12.7 µM]	7.9µM*
7	-5%	?	-1%	-3%	CCn1c(SCC(=O)N2CCCc3ccccc32)nc2ccccc2c1=O	19%	?
8	-17%	?	-2%	24%	Cc1cc2c(=O)n(Cc3ccco3)c(SCC(=O)N3CCCc4ccccc43)nc2s1	-20%[59 µM]	11µM*
9	?	?	2%	-4%	COCCCn1c(SCC(=O)NCc2ccco2)nc2sc3c(c2c1=O)CCC3	50µM*	-2%
10	·	·	·	3%	Cc1ccc(-c2nnc(Nc3ccc(O)cc3)c3ccccc23)cc1S(=O)(=O)N1CCCCC1	-30%[59 µM]	·
11	-6%	?	?	?	CCN(CC)c1ccc2c(c1)CCCN2	1.8µM*	25µM*
12	·	·	·	·	O=S(=O)(c1ccc2c(c1)CCCN2)N1CCCC1	-11%[2.33 µM]	·
13	-13%	?	2%	-24%	O=C(/C(=C(\[O-])c1ccccc1)[n+]1ccc2ccccc2c1)c1ccc(Cl)cc1	20µM*	?
14	18%	·	·	-7%	O=C(O)c1ccccc1C(=O)NC1CCN(c2nccc(C(F)(F)F)n2)CC1	16%	·
15	?	·	·	-50%	CCc1sc(C(=O)Nc2ncccc2O)cc1C	35µM*	·
16	·	·	·	2%	CCc1cccc(CC)c1NC(=O)Cc1csc(C)n1	5%[59 µM]	·
17	·	·	·	7%	COCCNC(=O)CSc1nc(-c2ccccc2)[nH]c1-c1ccc(OC)cc1	-4%[59 µM]	·
18	·	·	·	·	COc1ccc(-c2csc(NC(=O)CS(=O)(=O)c3ccccc3)n2)cc1	45µM*	·
19	·	·	·	·	N#Cc1ccc(OCC(=O)Nc2nc(-c3ccncc3)cs2)cc1	7%[12.7 µM]	·
20	13%	?	4%	-29%	CCCC(=O)Nc1nc(-c2ccc(OC)cc2)cs1	11%[12.7 µM]	-5%

Entries listed so far that bear a hit mark in Sfp PPTase inh.
item	Sfp PPTase inh	LMNA splice mod	KDM4E inh	miR-21 reporter	canonical_smiles	G9a inh	ALDH1A1 block
1	18µM*	4%	-11%	-17%	O=C(O)CCc1ccc(-c2ccc(Br)cc2)o1	16µM*	?
2	20µM*	0%	?	-3%	O=C(O)CCc1ccc(-c2ccc(Cl)cc2)o1	4µM*	?
3	14µM*	?	?	-28%	COc1ccc(-c2ccc(CCC(=O)O)o2)cc1	28µM*	?

Along the list, as entered above.
Sfp PPTase inh, nos. 1–8: 18µM*, 20µM*, 14µM*, ·, 11%, -12%, -5%, -17%
G9a inh, nos. 1–8: 16µM*, 4µM*, 28µM*, ·, -15%, 14%[12.7 µM], 19%, -20%[59 µM]

Other records follow.
item	Sfp PPTase inh	LMNA splice mod	KDM4E inh	miR-21 reporter	canonical_smiles	G9a inh	ALDH1A1 block
21	-15%	?	-4%	3%	COc1ccc(CC(=O)Nc2nc(-c3ccncc3)cs2)cc1	40µM*	?
22	-17%	-29%[46 µM]	-5%	-4%	COc1ccc(CCC(=O)Nc2nc(-c3ccncc3)cs2)cc1	8.9µM*	-14%
23	22µM*	·	·	-1%	O=C(COc1ccc(Cl)cc1)Nc1nc(-c2ccncc2)cs1	7.9µM*	·
24	·	?	·	-21%	CCC1CN(C(=O)N2CCC(C(=O)N3CCN(c4cc(C)ccc4C)CC3)CC2)c2ccccc2O1 (configuration not stated)	-1%[59 µM]	·
25	23%	?	2%[25.5 µM]	·	C=C1CC23C[C@H]4[C@@H]5[C@@]6(C)C[C@H](OC(=O)c7ccccc7)[C@@H](OC(C)=O)[C@]57[C@@H]2[C@@H](OC(C)=O)[C@H]1[C@@H](O)[C@H]3[C@H]7N4C6	29%[21.5 µM]	13%[20.9 µM]
26	32µM*	?	?	-18%	Cc1sc2nc3ccc(NCc4ccco4)nn3c(=O)c2c1C	18µM*	?
27	10%	0%	6%	0%	O=C1c2ccccc2C(=O)N1Cc1nc2ccccc2c(=O)n1Cc1ccco1	9%	4%
28	40µM*	?	?	-40%	O=c1c2ccccc2nc2ccc(NCc3ccco3)nn12	-12%[59 µM]	?
29	4%	·	-10%	2%	COc1cccc(/C=N/NC(=O)Cn2cnc3c2c(=O)n(C)c(=O)n3C)c1	·	·
30	·	·	·	-27%	CN(Cc1ccccc1)C(=O)c1cc(-c2cccc(Cl)c2)on1	49%[59 µM]	·
31	-2%	·	·	·	Cc1ccc(C2CC(=O)Oc3cc4c(cc32)OCO4)cc1 (configuration not stated)	?	1%
32	12%	-4%[46 µM]	-7%	-2%	Fc1ccc(-c2n[nH]c(=S)c3ccccc23)cc1	-6%	4µM*
33	18%	·	0%	-18%	O=c1[nH]nc(-c2ccccc2)c2ccccc12	13%	·
34	·	·	·	14%	CCOC(=O)c1cccc(NC(=O)CC2C(=O)N(c3ccc(F)cc3)C(=O)N2Cc2cccc(OC)c2)c1 (configuration not stated)	?	·
35	-22%	-8%	25µM*	-5%	O=c1/c(=C/c2ccco2)sc2nc(-c3ccccc3Br)nn12	22µM*	?
36	-5%	-22%	6%	-11%	COc1ccc(/C=c2\sc3nc(-c4ccccc4OC)nn3c2=O)c(OC)c1	-6%[12.7 µM]	9%
37	-12%	-17%	?	-4%	COc1ccccc1-c1nc2s/c(=C\c3cccs3)c(=O)n2n1	2.8µM*	-13%
38	-13%	-5%	8%	-3%	CC(=O)Oc1cccc(/C=c2\sc3nc(-c4ccco4)nn3c2=O)c1	?	?
39	-5%	-3%	2%	-4%	Cc1ccc(/C=c2\sc3nc(-c4cccs4)nn3c2=O)o1	18µM*	?
40	·	·	·	-23%	CC1=C(C(=O)Nc2ccccc2)C(c2cccs2)n2nc(SCc3ccccc3)nc2N1 (configuration not stated)	3%[59 µM]	·
41	5%	·	-24%	·	COc1cccc([C@@H]2Oc3ccc(OC)cc3C(=O)[C@H]2OC(=O)NCCOc2ccccc2)c1	·	1%
42	·	?	·	8%	Cc1c(C(=O)N(C)C)sc2c1c(=O)n(-c1ccccc1C(F)(F)F)c(=O)n2Cc1cccc(F)c1	2%[59 µM]	·
43	-7%	·	·	-19%	CCn1c(SCC(=O)Nc2ccc(F)cc2)nnc1C1CC1	3%	·
44	4%	8%[46 µM]	17%	17%	CCNc1ccc(C(=O)NN=C2CCCC2)cc1[N+](=O)[O-]	-11%	2.2µM*
45	8%	-14%	-3%	-16%	CC(O)CN=c1cc(-c2ccccc2)oc2ccc(Cl)cc12 (configuration not stated)	22%	?
46	89µM*	-8%	?	0%	OCCN=c1cc(-c2ccccc2)oc2ccc(Cl)cc12	-15%[0.501 µM]	4%
47	-16%	·	27%	-55%	CN(C)CCCN=c1cc(-c2ccccc2)oc2ccc(Cl)cc12	56µM*	-1%
48	·	-1%[46 µM]	·	-3%	CSCCC(NS(=O)(=O)c1ccc2c(c1)oc(=O)n2C)C(=O)NCc1ccc(Cl)cc1 (configuration not stated)	-18%[59 µM]	·
49	-2%	·	12%	-19%	O=C(COc1cccc2cccnc12)NNC(=S)Nc1ccccc1	18µM*	?
